This assay deals with human CRFR1 (Homo sapiens (Human), UniProt P34998). Description: CRFR1 Binding Test.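 Further: nonspecific binding was determined with a 4,000-fold excess of unlabelled sauvagine and subtracted from every reading.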 Conditions: competition with 100 pM 125I-CRF, SPA method, membrane fraction of human CRFR1-expressing HEK293 cells; read-out: CRF1 receptor binding capacity IC50.

By UniProt entry, the sequences of proteins in these tests, tags left out. Residues count along the entry.
UniProt P34998, 24-415: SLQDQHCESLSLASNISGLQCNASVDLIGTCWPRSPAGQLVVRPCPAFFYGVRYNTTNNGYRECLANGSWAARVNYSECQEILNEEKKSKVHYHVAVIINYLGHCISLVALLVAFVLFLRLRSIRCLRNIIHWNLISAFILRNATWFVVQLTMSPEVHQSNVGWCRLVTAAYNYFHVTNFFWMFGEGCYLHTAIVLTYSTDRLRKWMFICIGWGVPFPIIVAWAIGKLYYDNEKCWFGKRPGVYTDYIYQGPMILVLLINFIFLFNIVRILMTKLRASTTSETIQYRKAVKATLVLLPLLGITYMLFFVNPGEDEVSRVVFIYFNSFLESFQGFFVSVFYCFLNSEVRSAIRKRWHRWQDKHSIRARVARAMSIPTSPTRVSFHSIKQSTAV

Experimental findings from patent publication US8530504B2, “Pyrazolothiazole compound” (Eisai R&D Management Co., Ltd., priority 2009, dated 2013) are described below.

What is called IC50 is the point on the concentration scale where inhibition reaches its midpoint. `CCCN(CC1C2COCC21)c1c(OC)nn2c(-c3c(OC)cc(COC)cc3OC)csc12` (single isomer, unassigned; diastereomer 1) [Example 93, 3-[2,6-Dimethoxy-4-(methoxymethyl)phenyl]-6-methoxy-N-[3-oxabicyclo[3.1.0]hex-6-ylmethyl]-N-propylpyrazolo[5,1-b][1,3]thiazole-7-amine (diastereomer 1)]: the IC50 turned out to be 45 nM.

Take `CCCN(CC1C2COCC21)c1c(OC)nn2c(-c3c(OC)cc(COC)cc3OC)csc12` (single isomer, unassigned; diastereomer 2) [Example 95, 3-[2,6-Dimethoxy-4-(methoxymethyl)phenyl]-6-methoxy-N-[3-oxabicyclo[3.1.0]hex-6-ylmethyl]-N-propylpyrazolo[5,1-b][1,3]thiazole-7-amine (diastereomer 2)]: the IC50 was 80 nM.

As for `CCCN(CC1C2COCC21)c1c(OC)nn2c(-c3c(OC)cc(C#N)cc3OC)csc12` (single isomer, unassigned; diastereomer 1) [Example 101], the IC50 came to 99 nM.
